Data: PMC8693998 (Journal of natural products, 2021)
Entries after “also recorded” stand apart in the source; their conditions may differ.

Tested on: hot plate latency in catheterized rats
Test: Rat hot plate antinociception assay
Format: in vivo, Sprague–Dawley rats
Details: 0.1 mg/kg (i.v.) naltrexone after cumulative doses

Structure (SMILES): CN1CC[C@]23c4c5ccc(O)c4O[C@H]2[C@@H](O)C=C[C@H]3[C@H]1C5 [morphine, reference compound]
- Reversal of antinociception by naltrexone: fully reversed; also recorded: antagonized by naltrexone
